Reference: patent US10196454B2, “Anti-PMEL17 antibodies and immunoconjugates” (GENENTECH, INC., priority 2012, dated 2019)

Legend:
[1] = system: parental UACC-257X2.2 cells; experiment: In vitro cell proliferation (CellTiter-Glo, five days); format: cell-based; details: parental line, immunoconjugates
Description: (§1) In vitro cell proliferation of the cell lines in the presence of the immunoconjugates was assessed. Cells were plated at 1,500 cells per well in 50 μL of normal growth medium in 96-well clear-bottom plates. Twenty-four hours later, an additional 50 μL of culture medium with serial dilutions of immunoconjugates were added to triplicate wells. Five days later, cell survival was determined using CellTiter-Glo Luminescent Cell Viability Reagent (G7572, Promega Corporation, Madison, Wis.) using an EnVision 2101 Mutilabel Reader (Perkin-Elmer, Waltham, Mass.).

[2] = system: in vivo derived resistant UACC-257X2.2 cells; experiment: as above; format: cell-based; details: in vivo derived resistant line, immunoconjugates
Description: Tumor #359 was harvested and the cells were dissociated for growth in vitro (referred to herein as in vivo-derived resistant UACC-257X2.2 cells).
as §1

UACC-257X2.2 tumor = experiment: Resistance developed in vivo, UACC-257X2.2 xenograft; set-up: species or system mice; details: tumor #359, repeated IV doses 3 to 10 mg/kg
Description: For resistance developed in vivo, NCr nude mice (Taconic, Hudson, N.Y.) were inoculated subcutaneously in the dorsal right flank with 5 million UACC-257X2.2 cells in HBSS with Matrigel. UACC-257X2.2 cells are derived from UACC-257 cells (National Cancer Institute) and optimized for growth in vivo as follows. UACC-257 cells were injected subcutaneously in the right flank of female NCr nude mice to induce tumor growth. One tumor was harvested and grown in vitro (referred to as UACC-257X1.2 cell line). The UACC-257X1.2 line was injected again subcutaneously in the right flank of female NCr nude mice to improve the growth of the cell line in vivo. A tumor from the second injection round was collected and again adapted for in vitro growth to generate UACC-257X2.2.
Ten mice inoculated with UACC-257X2.2 cells were dosed with 3 mg/kg hu5E9.v1-MC-vc-PAB-MMAE intravenously on day 0 (the heavy chain and light chain sequences for hu5E9.v1 are shown in SEQ ID NOs: 46 and 45, respectively). To determine when the mice would be dosed again, and at what doses, the following was taken into consideration: whether or not tumors re-grew after the initial treatment (i.e., tumors that grew back to initial tumor volume size at day 0), and the rate of re-growth. […] The range of doses administered were 3 mg/kg, 6 mg/kg, 8 mg/kg, and 10 mg/kg.

[3] = system: in vitro derived resistant UACC-257X2.2 cells; experiment: In vitro cell proliferation (CellTiter-Glo, five days); format: cell-based
Description: For resistance developed in vitro, UACC-257X2.2 cells were adapted to increasing concentrations of anti-ETBR-vc-MMAE in culture dishes over the course of two months.
as §1

B1: anti-ETBR-vc-MMAE: anti-endothelin B receptor immunoconjugate comprising a val-cit linker and MMAE drug (conjugate)
heavy: EVQLVESGGGLVQPGGSLRLSCAASGYTFTSYWMQWVRQAPGKGLEWIGTIYPGDGDTSYAQKFKGRATLSTDKSKNTAYLQMNSLRAEDTAVYYCARWGYAYDIDNWGQGTLVTVSSASTKGPSVFPLAPSSKSTSGGTAALGCLVKDYFPEPVTVSWNSGALTSGVHTFPAVLQSSGLYSLSSVVTVPSSSLGTQTYICNVNHKPSNTKVDKKV[human IgG1 Fc omitted here]
light: DIQMTQSPSSLSASVGDRVTITCKSSQSLLDSDGKTYLNWLQQKPGKAPKRLIYLVSKLDSGVPSRFSGSGSGTDFTLTISSLQPEDFATYYCWQGTHFPYTFGQGTKVEIKRTVAAPSVFIFPPSDEQLKSGTASVVCLLNNFYPREAKVQWKVDNALQSGNSQESVTEQDSKDSTYSLSSTLTLSKADYEKHKVYACEVTHQGLSSPVTKSFNRGEC
modifications: MC-vc-PAB-MMAE conjugate
notes: anti-endothelin B receptor immunoconjugate comprising a val-cit linker and MMAE drug
B1 was tested, and the EC50 [1] was 45 ng/mL, the EC50 [2] was 235 ng/mL and the “time until tumor developed resistance” value (UACC-257X2.2 tumor) was “about 120 days”. The “effect on growth of in vitro-derived resistant cells” value ([3]; concentrations up to at least 10 μg/ml) was “relatively unaffected” and the EC50 ([3]; in vitro derived resistant line, immunoconjugates) was “insensitive”.
